Like-named read-outs stand apart in the source and are kept apart here.
Assays:
SH-SY5Y cells [1] = assay: iPOT DMR profiling of SH-SY5Y cells pretreated with probe molecules
SH-SY5Y cells [2] = system: SH-SY5Y cells
[3] = target: T1, human delta opioid receptor (Homo sapiens, UniProt P41143)
SH-SY5Y cells [4] = system: SH-SY5Y cells; remark: listed apart in the source
[5] = target: T1, human delta opioid receptor; assay type: cell-based; set-up: FLAG; expressed in transfected cells

Compound: Dynorphin A (1–8) (YGGFLRRI; Dynorphin A(1-8); UniProt P01213 207-214, looked up, fragment)
- effect of CTX pretreatment on ligand DMR (SH-SY5Y cells [1]; SH-SY5Y, 400 ng/ml CTX, 20 hr, ligand 10 μM): suppressed
- DMR agonist activity classification, SH-SY5Y (SH-SY5Y cells [2]): Full agonist

Compound: Oc1ccc2c3c1O[C@H]1c4oc5ccccc5c4C[C@@]4(O)[C@@H](C2)N(CC2CC2)CC[C@]314 [Naltriben]
- DMR agonist activity in HEK-DOR cells, in words [3]: silent

Compound: Deltorphin II
- potency to desensitize DAMGO-induced DMR versus that expected at DOR binding sites (SH-SY5Y cells [4]): lower potency

Compound: DTLET
- DMR agonist activity classification, DOR [3]: Full agonist
- DMR agonist activity classification, SH-SY5Y (SH-SY5Y cells [2]): Full agonist

Compound: NC(=O)[C@H](Cc1ccccc1)NC(=O)[C@H](Cc1ccccc1)NC(=O)[C@@H]1CCCN1C(=O)[C@@H](N)Cc1ccc(O)cc1 [Endomorphin-2]
- DMR agonist activity classification, SH-SY5Y (SH-SY5Y cells [2]): Full agonist
- maximal DMR response (SH-SY5Y cells [2]): 102±7 pm

Compound: C=CCN1CCC2(C)c3cc(O)ccc3CC1C2C (centres unmarked) [SKF10047]
- potency to block/desensitize DAMGO-induced DMR versus that expected from reported MOR affinity (SH-SY5Y cells [4]): greater potency

Compound: COc1cccc(C2(O)CCCCC2CN(C)C)c1 (centres unmarked) [Tramadol]
- DMR signal / agonist activity in native SH-SY5Y cells, in words (SH-SY5Y cells [2]): inactive

Compound: NC(=O)[C@H](Cc1ccccc1)NC(=O)[C@H](Cc1c[nH]c2ccccc12)NC(=O)[C@@H]1CCCN1C(=O)[C@@H](N)Cc1ccc(O)cc1 [Endomorphin-1]
- maximal DMR response (SH-SY5Y cells [2]): 102±6 pm

Compound: Oc1ccc2c3c1O[C@H]1c4[nH]c5ccccc5c4C[C@@]4(O)[C@@H](C2)N(CC2CC2)CC[C@]314 [Naltrindole]
- maximal DMR amplitude [3]: 82±9 pm

Compound: Oc1ccc2c3c1O[C@H]1c4c(c5ccccc5n4Cc4ccccc4)C[C@@]4(O)[C@@H](C2)N(CC2CC2)CC[C@]314 [N-Benzylnaltrindole]
- effect of LY294002 pretreatment on ligand DMR [5]: insensitive
- effect of SB202190 pretreatment on ligand DMR [5]: suppressed
- effect of SP600125 pretreatment on ligand DMR [5]: insensitive
- effect of U0126 pretreatment on ligand DMR [5]: insensitive

Compound: CN(C(=O)Cc1ccc(Cl)c(Cl)c1)C(CN1CCCC1)c1cccc(OCC(=O)O)c1 (centres unmarked) [ICI 204,448]
- DMR agonist activity classification, SH-SY5Y (SH-SY5Y cells [2]): Full agonist

Compound: DSLET
- DMR agonist activity classification, SH-SY5Y (SH-SY5Y cells [2]): Full agonist

Compound: (Met5)-Enkephalin
- DMR agonist activity classification, SH-SY5Y (SH-SY5Y cells [2]): Full agonist

Compound: Dynorphin A (2–13)
- DMR agonist activity classification, HEK (HEK293 cells): off-target
- DMR in parental HEK293 cells, in words (HEK293 cells): noticeable DMR

Compound: CN(C(=O)Cc1ccc(Cl)c(Cl)c1)[C@H](CN1CCCC1)c1cccc(N=C=S)c1 [DIPPA]
- effect of CTX pretreatment on ligand DMR (SH-SY5Y cells [1]): potentiated
- effect of SB202190 pretreatment on ligand DMR (SH-SY5Y cells [1]): delayed the time to reach its peak
- effect of U0126 pretreatment on ligand DMR (SH-SY5Y cells [1]): converted the DMR response to a single phase N-DMR
- effect of forskolin pretreatment on ligand DMR (SH-SY5Y cells [1]): potentiated
- ligand DMR in PTX-pretreated cells (SH-SY5Y cells [1]): suppressed both the early and late DMR response

Compound: DADLE
- DMR agonist activity classification, SH-SY5Y (SH-SY5Y cells [2]): Full agonist

Compound: COC(=O)/C=C/C(=O)N[C@@H]1CC[C@@]2(O)[C@H]3Cc4ccc(O)c5c4[C@@]2(CCN3CC2CC2)[C@H]1O5 [β-Funaltrexamine]
- potency to block/desensitize DAMGO-induced DMR versus that expected from reported MOR affinity (SH-SY5Y cells [4]): less potent

Compound: CC1(C)SSC(C)(C)[C@@H](NC(=O)[C@@H](N)Cc2ccc(O)cc2)C(=O)NCC(=O)N[C@@H](Cc2ccccc2)C(=O)N[C@H]1C(=O)O [DPDPE]
- potency to desensitize DAMGO-induced DMR versus that expected at DOR binding sites (SH-SY5Y cells [4]): lower potency
- effect of CTX pretreatment on ligand DMR (SH-SY5Y cells [1]): suppressed
- effect of forskolin pretreatment on ligand DMR (SH-SY5Y cells [1]): suppressed
- effect of the kinase inhibitors on ligand DMR (SH-SY5Y cells [1]): mostly suppressed

Compound: CN(C(=O)Cc1ccc(Cl)c(Cl)c1)[C@H](CN1CCCC1)c1ccccc1 [ICI 199,441]
- DMR signal / agonist activity in native SH-SY5Y cells, in words (SH-SY5Y cells [2]): biphasic DMR response

Compound: O=C1/C(=C/c2ccccc2)C[C@@]2(O)[C@H]3Cc4ccc(O)c5c4[C@@]2(CCN3CC2CC2)[C@H]1O5 [BNTX]
- DMR agonist activity classification, DOR [3]: off-target
- DMR agonist activity classification, SH-SY5Y (SH-SY5Y cells [2]): off-target
- DMR signal / agonist activity in native SH-SY5Y cells, in words (SH-SY5Y cells [2]): biphasic DMR response

Compound: CCCN1C[C@H](C)N([C@H](c2ccc(C(=O)N(CC)CC)cc2)c2cccc(OC)c2)C[C@H]1C [SNC 121]
- potency to desensitize DAMGO-induced DMR versus that expected at DOR binding sites (SH-SY5Y cells [4]): lower potency

Compound: C[C@@H](NC(=O)[C@@H](N)Cc1ccc(O)cc1)C(=O)NCC(=O)N(C)[C@@H](Cc1ccccc1)C(=O)NCCO [DAMGO]
- maximal DMR amplitude [3]: 235±13 pm
- DMR agonist activity classification, SH-SY5Y (SH-SY5Y cells [2]): Full agonist
- DMR response at 9 min poststimulation (SH-SY5Y cells [2]): 87±9 pm
- DMR signal / agonist activity in native SH-SY5Y cells, in words (SH-SY5Y cells [2]): positive DMR signal
- maximal DMR response (SH-SY5Y cells [2]): 102±8 pm

Compound: C=CCN1CC[C@]23CCCC[C@H]2[C@H]1Cc1ccc(O)cc13 [Levallorphan]
- potency to block/desensitize DAMGO-induced DMR versus that expected from reported MOR affinity (SH-SY5Y cells [4]): less potent

Compound: α-Neoendorphin (YGGFLRKYPK; Alpha-neoendorphin; UniProt P01213 175-184, looked up)
- DMR agonist activity classification, DOR [3]: Full agonist
- DMR agonist activity classification, SH-SY5Y (SH-SY5Y cells [2]): Full agonist

Compound: C=CCN1C[C@H](C)N([C@H](c2ccc(C(=O)N(CC)CC)cc2)c2cccc(OC)c2)C[C@H]1C [SNC 80]
- potency to desensitize DAMGO-induced DMR versus that expected at DOR binding sites (SH-SY5Y cells [4]): lower potency

Compound: Dynorphin B
- DMR agonist activity classification, SH-SY5Y (SH-SY5Y cells [2]): Full agonist
